Test [1] deals with thrombin receptor extracellular domain peptide. The test can be described thus: IAsys biosensor; AHT immobilized, thrombin receptor extracellular domain peptide (SEQ ID NO:4) as analyte (filing cites method D).
The target in test [2] is hirudin C-terminal peptide. The test can be described thus: hirudin C-terminal peptide-immobilized gel column (method E); Western blot of flow-through and eluted fractions.
Test [3] deals with blood coagulation factor 8 (UniProt P00451). The test can be described thus: IAsys biosensor; derivative immobilized; 100 nM Fbgn and 100 nM FVIII; reference AHT cuvette.
Test [4] shares this target. In words: IAsys biosensor; derivative immobilized on CM dextran cuvette; 100 nM FVIII added; reference AHT cuvette.
For test [5] the target is unchanged. In words: IAsys biosensor; about 4,100 arc of derivative immobilized; 500 nM FVIII.
Test [6] concerns the target thrombin receptor extracellular domain peptide. In words: IAsys biosensor; derivative immobilized on CM dextran cuvette, thrombin receptor extracellular domain peptide (SEQ ID NO:4) 10-1,000 nM; FAST fit.
Test [7] deals with blood coagulation factor 8 (UniProt P00451). The test can be described thus: IAsys biosensor, FAST FIT program; derivative immobilized.
Test [8] addresses fibrinogen (UniProt P02671). The test can be described thus: IAsys biosensor; about 4,100 arc of derivative immobilized; 500 nM Fbgn.
In test [9] the target is soluble thrombomodulin (UniProt P07204). The test can be described thus: IAsys biosensor; about 4,100 arc of derivative immobilized; 50 nM soluble TM.
In test [10] the target is fibrinogen (UniProt P02671). The test can be described thus: IAsys biosensor; about 2,000 arc of derivative immobilized; 500 nM Fbgn.
Test [11] deals with soluble thrombomodulin (UniProt P07204). The test can be described thus: IAsys biosensor; about 2,000 arc of derivative immobilized; 50 nM soluble TM.
Test [12] has as its target blood coagulation factor 8 (UniProt P00451). The test can be described thus: IAsys biosensor; about 2,000 arc of derivative immobilized; 500 nM FVIII.
Test [13] addresses soluble thrombomodulin (UniProt P07204). In words: IAsys biosensor; derivative immobilized (about 1,800 arc); 16.7 nM then 50 nM TM; reference 205A43A thrombin (FIG. 19).
The target in test [14] is blood coagulation factor 8 (UniProt P00451). The test can be described thus: IAsys biosensor; derivative immobilized; 100 nM Fbgn and 100 nM FVIII; reference 205A43A thrombin.

Here are results for nine substances from US20070282095A1.

By Kd is commonly meant a measure of binding affinity in units of concentration. The low end stands for tighter binding, the high end for weaker binding.

As to “anhydrothrombin (from UniProt P00734 315-363; P00734 364-622) (enzyme)”, the Kd in test [1] is 1200 nM.
Consider “205A43A thrombin (serine 205 to alanine, histidine 43 to alanine in B chain) (from UniProt P00734 315-363; P00734 364-622) (enzyme; other documents disagree on this pair)”, for which the percent bound to hirudin C-terminal peptide gel in [2] is more than 95%.
Regarding “205A43A thrombin (serine 205 to alanine, histidine 43 to alanine in B chain) (from UniProt P00734 315-363; P00734 364-622) (enzyme)”, the ratio between the binding abilities to FVIII and Fbgn, relative to AHT in [3] was 1.4 folds.
With “205A thrombin (serine at position 205 in B chain substituted by alanine) (from UniProt P00734 315-363; P00734 364-622) (enzyme)”, the FVIII binding signal relative to AHT in test [4] was 40%.
“203A205A thrombin (glycine 203 to alanine, serine 205 to alanine in B chain) (from UniProt P00734 315-363; P00734 364-622) (enzyme)” returned an FVIII signal per immobilized protein amount relative to AHT in test [4] of 5%.
For the substance “203A205G thrombin (glycine at position 203 in B chain substituted by alanine, serine at position 205 substituted by glycine) (from UniProt P00734 315-363; P00734 364-622) (enzyme)”, the amount adsorbed after three minutes in test [5] was 300 arc sec; in test [8], 300 arc sec; in [9] it was 100 arc sec. Besides, the dissociation constant Kd in test [6] came out at 3200 nM; in test [7], 5.07 nM. In test [4], this substance returned an FVIII binding per immobilized amount relative to AHT of 11%.
For the substance “205A43S thrombin (serine 205 to alanine, histidine 43 to serine in B chain) (from UniProt P00734 315-363; P00734 364-622) (enzyme)”, the binding ratio between FVIII and Fbgn, relative to AhT in test [3] is 1.2 folds.
On to “77E203A205G thrombin (lysine 77 to glutamic acid, glycine 203 to alanine, serine 205 to glycine in B chain) (from UniProt P00734 315-363; P00734 364-622) (enzyme)”, for which the amount adsorbed after three minutes in test [10] came to 80 arc sec; in [11] it was 20 arc sec; in test [12], 300 arc sec. The substance further returned a Kd in test [7] of 22.5 nM.
In the case of “65A205A43A thrombin (lysine 65 to alanine, serine 205 to alanine, histidine 43 to alanine in B chain) (from UniProt P00734 315-363; P00734 364-622) (enzyme)”, in test [13], the TM-binding ability relative to 205A43A thrombin (per immobilized protein) amounted to 30%. Also, in [14], the ratio between FVIII-binding ability and Fbgn-binding ability, relative to 205A43A thrombin is 2.8 folds.
